Test results from BindingDB's records for doi:10.1016/j.bmcl.2008.09.002 (Ohio State University, 2008).

Target: T1, Androgen receptor (Rattus norvegicus, UniProt P15207)
T1 sequence (P15207 whole entry): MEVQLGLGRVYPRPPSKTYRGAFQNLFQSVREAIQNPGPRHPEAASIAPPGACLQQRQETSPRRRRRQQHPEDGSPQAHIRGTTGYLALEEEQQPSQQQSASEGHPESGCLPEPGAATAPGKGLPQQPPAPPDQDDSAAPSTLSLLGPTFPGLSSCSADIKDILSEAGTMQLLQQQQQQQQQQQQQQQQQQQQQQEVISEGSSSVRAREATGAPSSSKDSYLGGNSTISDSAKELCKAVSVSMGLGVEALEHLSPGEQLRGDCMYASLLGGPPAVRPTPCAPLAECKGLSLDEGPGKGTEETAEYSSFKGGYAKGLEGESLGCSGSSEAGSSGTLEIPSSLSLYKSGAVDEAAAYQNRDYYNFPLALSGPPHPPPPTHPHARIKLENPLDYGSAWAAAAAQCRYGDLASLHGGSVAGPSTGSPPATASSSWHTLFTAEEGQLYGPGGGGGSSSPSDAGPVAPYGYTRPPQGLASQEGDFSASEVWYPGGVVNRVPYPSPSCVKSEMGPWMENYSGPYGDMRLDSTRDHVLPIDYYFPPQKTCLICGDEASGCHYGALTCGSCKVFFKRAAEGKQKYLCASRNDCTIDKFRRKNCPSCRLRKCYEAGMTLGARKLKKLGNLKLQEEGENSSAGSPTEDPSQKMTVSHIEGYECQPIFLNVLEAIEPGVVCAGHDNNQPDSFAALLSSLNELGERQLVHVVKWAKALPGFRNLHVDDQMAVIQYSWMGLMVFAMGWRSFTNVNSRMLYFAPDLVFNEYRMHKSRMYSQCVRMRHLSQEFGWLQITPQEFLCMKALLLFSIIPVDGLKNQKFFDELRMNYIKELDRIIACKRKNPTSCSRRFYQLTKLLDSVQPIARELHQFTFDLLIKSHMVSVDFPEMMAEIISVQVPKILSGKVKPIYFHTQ

## C[C@](O)(COc1ccc(Cl)c(F)c1)C(=O)Nc1ccc(C#N)c(C(F)(F)F)c1
  Ki: 1.7 nM
